Values of other authors as cited in patent US20050089581A1, “Magnesium-containing compositions and methods for enhancing dehydroepiandrosterone levels” (priority 2003, published 2005).

Test system: DHEA levels
Details: oral administration

**Q.** For magnesium taurate, which absorption is on record?
**A.** difficult to absorb
